Laboratory results from US9012446B2, “Amino-oxazines and amino-dihydrothiazine compounds as beta-secretase modulators and methods of use” (Amgen Inc., priority 2010, dated 2015).

By UniProt entry, the sequences of proteins in these tests, tags left out. Residues count along the entry.
UniProt P56817, 46-501 limits assumed: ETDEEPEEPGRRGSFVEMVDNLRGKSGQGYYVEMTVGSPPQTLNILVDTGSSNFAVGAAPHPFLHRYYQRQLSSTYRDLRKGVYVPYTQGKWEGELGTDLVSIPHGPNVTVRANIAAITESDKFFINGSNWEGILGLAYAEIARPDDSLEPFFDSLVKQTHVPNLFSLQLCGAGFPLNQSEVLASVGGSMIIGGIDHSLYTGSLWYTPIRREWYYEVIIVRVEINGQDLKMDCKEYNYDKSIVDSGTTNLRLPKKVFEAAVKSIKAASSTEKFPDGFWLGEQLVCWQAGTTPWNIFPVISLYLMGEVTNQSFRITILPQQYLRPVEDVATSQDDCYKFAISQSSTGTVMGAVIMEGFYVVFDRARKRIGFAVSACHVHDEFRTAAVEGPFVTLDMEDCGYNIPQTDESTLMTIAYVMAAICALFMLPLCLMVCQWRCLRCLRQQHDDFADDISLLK

Assays:
[1] = system: Aβ40; assay: In vitro BACE cell-based assay (Aβ40 sandwich ELISA, cells stably expressing APP); conditions: read-out: HEK cell assay
Procedure: In Vitro BACE Cell-Based Assay
The cell-based assay measures inhibition or reduction of Aβ40 in conditioned medium of test compound treated cells expressing amyloid precursor protein.
Cells stably expressing Amyloid Precursor Protein (APP) were plated at a density of 40K cells/well in 96 well plates (Costar). The cells were cultivated for 24 hours at 37° C. and 5% CO2 in DMEM supplemented with 10% FBS. The test compounds were then added to cells in 10-point dose response concentrations with the starting concentration being either 100 μM or 10 μM. The compounds were diluted from stock solutions in DMSO and the final DMSO concentration of the test compounds on cells was 0.1%. After 24 h of incubation with the test compounds the supernatant conditioned media was collected and the Aβ40 levels were determined using a sandwich ELISA. The IC50 of the compound was calculated from the percent of control or percent inhibition of Aβ40 as a function of the concentration of the test compound.
The sandwich ELISA to detect Aβ40 was performed in 96 well microtiter plates, which were pre-treated with goat anti-rabbit IgG (Pierce). The capture and detecting antibody pair that were used to detect Aβ40 from cell supernatants were affinity purified pAb40 (Biosource) and biotinylated 6E10 (Signet Labs Inc.), respectively. The optimal concentration for the pAb40 antibody was 3 μg/ml in Superblock/TBS (Pierce) that was supplemented with 0.05% Tween 20 (Sigma). Optimal concentration for the detection antibody 6E10-biotinylated was 0.5 μg/ml in Superblock/TBS (Pierce) that had been supplemented with 2% normal goat serum and 2% normal mouse serum.
Cellular supernatants were incubated with the capture antibody for 3 h at 4° C., followed by 3 wash steps in TBS-tween (0.05%). The detecting antibody incubation was for 2 h at 4° C., again followed by the wash steps as described previously. The final readout of the ELISA is Time-Resolved Fluorescence (counts per minute) using Delfia reagents Streptavidin-Europium and Enhancement solutions (Perkin Elmer) and the Victor 2 multilabel counter (Perkin Elmer).

[2] = target: BACE (Homo sapiens, UniProt P56817); assay: In vitro enzymatic BACE FRET assay; format: biochemical; conditions: read-out: BACE 1 FRET assay; average IC50, enzyme assay
Procedure: In Vitro Enzymatic BACE FRET (Fluorescence Resonance Energy Transfer) Assay (Enzyme Assay Data in the Example Table I) The assay buffer used in this screen is 0.05 M acetate, pH 4.2, 10% DMSO final, 100 uM genapol (which is a nonionic detergent, below its Critical Micelle Concentration). The beta secretase enzyme (0.2 nM) is pre-incubated for one hour with inhibitors, typically in about 1 uL of DMSO according to a serial dilution, are added thereto. This assay is effectively started by the addition of FRET substrate (50 nM) and the combination is incubated for one hour. The FRET assay is terminated with by addition of Tris buffer, which raises the pH to neutrality, and the fluorescence is determined. The FRET substrate is a peptide with commercially available fluorophore and quencher, on opposite sides of the BACE cleavage site. Proteolytic cleavage of the FRET substrate releases quenching of fluorescence (excitation 488 nm and emission […]).

[3] = system: Abeta 40; assay: In vivo inhibition of beta-secretase: Abeta 40 reduction in CSF and brain of the rat; conditions: after 4 hrs
Text: In Vivo Inhibition of Beta-Secretase
Several animal models, including mouse, rat, dog, and monkey, may be used to screen for inhibition of beta-secretase activity in vivo following administration of a test compound sample. Animals used in this invention can be wild type, transgenic, or gene knockout animals. For example, the Tg2576 mouse model, prepared and conducted as described in Hsiao et al., 1996, Science 274, 99-102, and other non-transgenic or gene knockout animals are useful to analyze in vivo inhibition of Amyloid beta peptide (Abeta) production in the presence of inhibitory test compounds. Generally, 2 to 18 month old Tg2576 mice, gene knockout mice or non-transgenic animals are administered test compounds formulated in vehicles, such as cyclodextran, phosphate buffers, hydroxypropyl methylcellulose or other suitable vehicles. […] CSF or brain supernatants are then analyzed for the presence of A-beta peptide by specific sandwich ELISA assays based on ECL (Electrochemiluminescence) technology. For example, rat Abeta40 is measured using biotinylated-4G8 (Signet) as a capture antibody and Fab40 (an in-house antibody specific to the C-terminal of Abeta40) as a detection antibody. […]

[4] = average IC50, cell assay, HEK cells

Row | SMILES | IC50 ([1]; average IC50, HEK cell assay) [nM] | IC50 [2] [nM] | IC50 [1, 4] [nM] | % reduction of rat CSF levels at 10 pmk ([3]; Abeta 40, rat CSF, 10 mpk) [%] | % reduction of rat brain levels at 10 mpk ([3]; Abeta 40, rat brain) [%]
1 | NC1=NC2(COC1C1CCOCC1)c1cc(-c3cccnc3F)ccc1Oc1cnc(Cl)cc12 (stereo not shown) | 32.7 | 24.1 | – | – | –
2 | NC1=NC2(COC1C1CCOCC1)c1cc(Br)ccc1Oc1cnc(Cl)cc12 (stereo not shown) | 2450 | 2550 | – | – | –
3 | NC1=N[C@@]2(CO[C@@H]1C1CCOCC1)c1cc(-c3cccnc3F)ccc1Oc1cnc(Cl)cc12 (relative stereo) | 68.7 | 333 | – | – | –
4 | NC1=N[C@@]2(COC1)c1cc(-c3cccnc3F)ccc1Oc1cnc(C3=CCCOC3)cc12 | – | 0.4 | 0.6 | 38 | 27

Further molecules by falling IC50 [2], results first:

Row | IC50 ([1]; average IC50, HEK cell assay) [nM] | IC50 [2] [nM] | IC50 [1, 4] [nM] | SMILES | % reduction of rat CSF levels at 10 pmk ([3]; Abeta 40, rat CSF, 10 mpk) [%] | % reduction of rat brain levels at 10 mpk ([3]; Abeta 40, rat brain) [%]
5 | 664 | 104 | – | NC1=NC2(COC1c1cccnc1)c1cc(-c3cccnc3F)ccc1Oc1cnc(Cl)cc12 (stereo not shown) | – | –
6 | 272 | 102 | – | COc1cc(F)c2c(c1)C1(CCOC(N)=N1)c1cc(-c3cccnc3F)ccc1O2 (stereo not shown) | – | –
7 | 34.2 | 61.6 | – | NC1=NC2(CCO1)c1cc(-c3cccnc3)ccc1Oc1cnc(-c3cccnc3)cc12 (stereo not shown) [compound 150, 3,7-di-3-pyridinyl-5′,6′-dihydrospiro[chromeno[2,3-c]pyridine-5,4′-[1,3]oxazin]-2′-amine] | – | –
8 | – | 25 | 36.6 | NC1=NC2(CCO1)c1cc(-c3cccnc3F)ccc1Oc1cnc(-c3ccnc(F)c3)cc12 (stereo not shown) | – | –
9 | 17 | 19.9 | – | NC1=NC2(CCO1)c1cc(-c3cccnc3F)ccc1Oc1ncc(-c3ccnc(F)c3)cc12 (stereo not shown) | – | –
10 | – | 0.9 | 5.5 | NC1=NC2(COC1)c1cc(-c3cccnc3F)ccc1Oc1cnc(-c3ccnc(F)c3)cc12 (stereo not shown) | – | –

Like-named read-outs stand apart in the source and are kept apart here.
